Biological target: T1, functional uptake of serotonin (5-HT) (Rattus norvegicus, UniProt P31652)
T1 construct: synaptosomes isolated in a 0.32M sucrose buffer from a male Wistar rat cortex; from tissue
Assay: Serotonin functional uptake assay in rat synaptosomes
Type: biochemical
Settings: [3H]5-hydroxytryptamine, 15 min at 37° C.

Protein sequences, listed by entry. Tags and fused reporters are not part of them.
UniProt P31652, whole entry: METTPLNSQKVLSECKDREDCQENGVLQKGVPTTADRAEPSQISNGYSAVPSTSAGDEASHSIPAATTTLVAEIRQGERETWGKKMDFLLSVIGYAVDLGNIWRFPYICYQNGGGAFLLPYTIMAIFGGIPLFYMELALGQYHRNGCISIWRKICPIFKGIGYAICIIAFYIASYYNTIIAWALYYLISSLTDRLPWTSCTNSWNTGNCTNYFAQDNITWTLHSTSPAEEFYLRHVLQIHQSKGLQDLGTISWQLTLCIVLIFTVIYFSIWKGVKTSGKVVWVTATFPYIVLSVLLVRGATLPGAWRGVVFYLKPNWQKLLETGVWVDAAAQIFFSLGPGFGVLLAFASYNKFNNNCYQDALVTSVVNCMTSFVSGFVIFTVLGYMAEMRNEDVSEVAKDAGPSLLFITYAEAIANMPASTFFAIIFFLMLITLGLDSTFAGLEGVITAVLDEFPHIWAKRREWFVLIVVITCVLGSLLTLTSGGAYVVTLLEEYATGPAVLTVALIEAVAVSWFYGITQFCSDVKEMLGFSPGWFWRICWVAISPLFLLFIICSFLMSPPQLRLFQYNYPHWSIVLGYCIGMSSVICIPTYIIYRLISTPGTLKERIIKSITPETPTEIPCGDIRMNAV

N[C@@H]1CC[C@@H](c2ccc(Cl)c(Cl)c2)c2ccccc21 (racemic) [P + Q, trans-4-(3,4-dichlorophenyl)-1,2,3,4-tetrahydro-1-naphthalenamine]
IC50: 41 nM
